Data as given in patent US8022225B2, “Triazole derivative” (Taisho Pharmaceutical Co., Ltd, priority 2004, dated 2011).
pKd: −log10 of the molar value.

The chains behind the UniProt entries cited, without tags or fusion partners.
UniProt P21453, whole entry: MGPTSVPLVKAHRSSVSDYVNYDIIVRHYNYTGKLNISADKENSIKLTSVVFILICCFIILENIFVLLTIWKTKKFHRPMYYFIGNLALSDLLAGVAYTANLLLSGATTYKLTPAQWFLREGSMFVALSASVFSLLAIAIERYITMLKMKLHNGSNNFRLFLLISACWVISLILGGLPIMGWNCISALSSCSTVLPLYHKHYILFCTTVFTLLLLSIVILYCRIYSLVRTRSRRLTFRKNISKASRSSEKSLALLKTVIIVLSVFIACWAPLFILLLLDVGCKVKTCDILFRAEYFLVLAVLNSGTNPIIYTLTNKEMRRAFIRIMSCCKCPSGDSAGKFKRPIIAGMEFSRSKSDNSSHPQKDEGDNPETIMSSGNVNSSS

Target: human Edg-1(S1P1) (Homo sapiens, UniProt P21453)
Test: Cell system binding test: inhibition of [3H]-S1P binding to Edg-1(S1P1) gene transferred HEK-293 cells
Details: read-out: Kd of binding to human Edg-1(S1P1) gene transferred HEK-293 cell strain; radioligand binding, whole cells; tested as the radiolabelled form
Method: Using a human Edg-1(S1P1) gene transferred HEK-293 cell strain (showing a binding of Kd=6.4±2.1 nM, Bmax=160±94 fmol/10^5 cells to [^3H]-S1P), which had been obtained by a method complying with the method described in the literature (Science. 1998, 279:1552), the Edg-1(S1P1) binding inhibiting effect of the compound of the present invention was investigated in accordance with the method described in the literature. Cells (1×10^5 cells/well) obtained as described above were seeded in poly-L-lysine-coated 96-well plates (Corning Incorporated), and then incubated in a 5% carbon dioxide gas incubator for 12 hours at 37° C. with the use of an MEM medium (Invitrogen Corporation) containing 100 U/mL of penicillin, 100 μg/mL of streptomycin, a 1% MEM nonessential amino acid solution, and 10% FCS. […]
The same procedure was performed in the absence of the test compound, and the amount (B) of binding of [^3H]-S1P was calculated. Moreover, the same procedure was performed in the absence of the test compound with the use of HEK-293 cells, to which the Edg-1(S1P1) gene had not been transferred, and the background amount (C) of binding of [^3H]-S1P was calculated. […]

- pKd: 8.19
SMILES: CCCCCCCCCCCCC/C=C/[C@@H](O)[C@@H](N)COP(=O)(O)O
